From ChEMBL document CHEMBL1126112 (J Med Chem, 1992)

By UniProt entry, the sequences of proteins in these tests, tags left out. Where a name states a change or a piece, a line headed by the entry shows the natural chain unless it says otherwise.
UniProt P41144: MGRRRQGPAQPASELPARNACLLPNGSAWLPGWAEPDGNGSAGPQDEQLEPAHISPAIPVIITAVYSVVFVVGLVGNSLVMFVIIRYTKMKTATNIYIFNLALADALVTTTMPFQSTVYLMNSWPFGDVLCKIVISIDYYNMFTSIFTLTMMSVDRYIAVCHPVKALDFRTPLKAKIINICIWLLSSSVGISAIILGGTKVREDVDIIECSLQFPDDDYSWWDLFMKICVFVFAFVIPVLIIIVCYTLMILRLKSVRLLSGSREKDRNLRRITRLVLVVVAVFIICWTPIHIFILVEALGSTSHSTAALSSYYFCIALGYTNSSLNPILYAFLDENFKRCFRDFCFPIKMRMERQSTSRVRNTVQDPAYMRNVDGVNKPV
UniProt P97266, whole entry, looked up: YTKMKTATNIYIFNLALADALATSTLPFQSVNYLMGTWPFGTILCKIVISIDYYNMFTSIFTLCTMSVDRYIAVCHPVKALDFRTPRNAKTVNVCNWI

Columns and labels:
[1] = target: Kappa-type opioid receptor (Cavia porcellus, UniProt P41144); assay: Tested for inhibitory effect on binding of [3H]bremazocine to opioid receptor kappa in guinea pig cerebellum membranes
Cavia porcellus = species: Cavia porcellus; assay: Tested for naloxone pA2 activity in guinea pig ileum; format: functional
Mu-type opioid receptor = Mu-type opioid receptor (Cavia porcellus, UniProt P97266); assay: Tested for inhibitory effect on binding of [3H]DAMGO to opioid receptor mu in guinea pig cerebellum membranes

Compound	Ki [1]	Activity (Cavia porcellus)	Ki (Mu-type opioid receptor)
CN(C(=O)Cc1ccc(Cl)c(Cl)c1)C1CCCCC1N1CCCC1 (stereo not given)	1.16 nM	7	206 nM
CN(C(=O)Cc1ccccc1)[C@H]1CC[C@@]2(CCCO2)C[C@@H]1N1CCCC1	1.06 nM	–	551 nM
